# Measurements taken from BindingDB's records for doi:10.1101/2020.12.16.422677 (Fraunhofer Institute for Translational Medicine and …, 2020).
# Biological target: Replicase polyprotein 1ab (Severe acute respiratory syndrome coronavirus 2, UniProt P0DTD1)
# Assay: Hit profiling assay with DTT
compound,measurement,value
"CN1CCN(C2=C(Cl)C(=O)N(c3ccc(Cl)c(Cl)c3)C2=O)CC1 [3-chloro-1-(3,4-dichlorophenyl)-4-(4-methyl-1-piperazinyl)pyrrole-2,5-dione]",IC50,1560 nM
